For two molecules, response results are on record in PMC5080790.

The assay deals with T1, Mutant Atro box peptide (two leucines to alanines).
T1 chain: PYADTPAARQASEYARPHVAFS
The experiment in a line: MARCoNI array. Conditions: chain shown with the change; cell lysates from HEK293 cells; n = 3; parent: est. 270; read off a plot.

B1: m1 (binder); m4 (target) R276Q (NR2E1 LBD); L8A; L11A (Atro box peptide) (protein)
chain: MSKPAGSTSRILDIPCKVCGDRSSGKHYGVYACDGCSGFFKRSIRRNRTYVCKSGNQGGCPVDKTHRNQCRACRLKKCLEVNMNKDAVQHERGPRTSTIRKQVALYFRGHKEENGAAAHFPSAALPAPAFFTAVTQLEPHGLELAAVSTTPERQTLVSLAQPTPKYPHEVNGTPMYLYEVATESVCESAARLLFMSIKWAKSVPAFSTLSLQDQLMLLEDAWRELFVLGIAQWAIPVDANTLLAVSGMNGDNTDSQKLNKIISEIQALQEVVARFQQLRLDATEFACLKCIVTFKAVPTHSGSELRSFRNAAAIAALQDEAQLTLNSYIHTRYPTQPCRFGKLLLLLPALRSISPSTIEEVFFKKTIGNVPITRLLSDMYKSSDI
B1: the response came out at 6 AU.

B2: m1 (binder); m4 (target) R274G (NR2E1 LBD); L8A; L11A (Atro box peptide) (protein)
chain: VSTTPERQTLVSLAQPTPKYPHEVNGTPMYLYEVATESVCESAARLLFMSIKWAKSVPAFSTLSLQDQLMLLEDAWRELFVLGIAQWAIPVDANTLLAVSGMNGDNTDSQKLNKIISEIQALQEVVAGFRQLRLDATEFACLKCIVTFKAVPTHSGSELRSFRNAAAIAALQDEAQLTLNSYIHTRYPTQPCRFGKLLLLLPALRSISPSTIEEVFFKKTIGNVPITRLLSDMYKSSDI
In the case of B2, the response was 4 AU.
